PubChem BioAssay AID939 (National Center for Advancing Translational Sciences (NCATS), 2007)
This is a selection; strong and weak results do not stand in their true shares. Records with an inconclusive call do not appear. Activity calls are given as the source filed them. The call rests on the fitted dose curve; in most records, active means well fitted activation curve with a large enough effect in the main read-out, with a control signal flat; inconclusive means small, poorly fitted or top-dose-only effect, or effect the other way, or a change in a side signal; inactive means no such curve, though single readings can be large or run the other way.

Sequences of proteins named here, by UniProt entry; tags and fusion partners are left off.
UniProt P16473, whole entry, looked up: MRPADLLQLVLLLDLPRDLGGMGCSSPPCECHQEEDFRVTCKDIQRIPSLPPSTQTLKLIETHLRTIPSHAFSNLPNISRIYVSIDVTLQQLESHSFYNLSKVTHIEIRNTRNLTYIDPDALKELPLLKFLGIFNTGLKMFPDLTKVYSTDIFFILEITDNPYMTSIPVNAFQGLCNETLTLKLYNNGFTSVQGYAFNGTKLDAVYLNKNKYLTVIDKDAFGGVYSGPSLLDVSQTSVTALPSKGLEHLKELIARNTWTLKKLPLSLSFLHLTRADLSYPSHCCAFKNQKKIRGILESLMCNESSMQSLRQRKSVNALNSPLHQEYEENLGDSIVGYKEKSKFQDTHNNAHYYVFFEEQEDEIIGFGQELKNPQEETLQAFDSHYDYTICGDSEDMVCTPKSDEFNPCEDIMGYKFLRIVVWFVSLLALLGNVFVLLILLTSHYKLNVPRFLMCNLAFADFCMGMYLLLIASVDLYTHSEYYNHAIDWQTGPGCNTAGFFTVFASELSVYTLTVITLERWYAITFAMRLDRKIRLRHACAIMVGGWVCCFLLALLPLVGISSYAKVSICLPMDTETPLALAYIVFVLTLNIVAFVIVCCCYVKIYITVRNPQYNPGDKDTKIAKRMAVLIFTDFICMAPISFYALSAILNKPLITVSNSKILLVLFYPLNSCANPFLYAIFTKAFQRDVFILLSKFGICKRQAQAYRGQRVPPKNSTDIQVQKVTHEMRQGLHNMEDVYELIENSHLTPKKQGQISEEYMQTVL

Target: Thyrotropin receptor (Homo sapiens) (UniProt P16473)
Assay: Confirmation Concentration-Response Assay for Agonists of the Thyroid Stimulating Hormone Receptor
Details: HEK293 TSHR-CNG cells, membrane potential dye, cAMP
Text: NIH Chemical Genomics Center [NCGC] NIH Molecular Libraries Screening Centers Network [MLSCN] MLSCN Grant: 1 X01 MH080680-01 PI Name: Dr. Marvin Gershengorn, NIH NCGC Assay Overview: Thyroid Stimulating Hormone Receptor TSH is an alpha/beta heterodimeric glycoprotein hormone secreted from the anterior pituitary gland which belongs to the glycoprotein hormone family. The actions of TSH are mediated by a seven-transmembrane receptor, which upon TSH binding couples preferentially to the G-alpha (s) protein (Gs), resulting in activation of adenylate cyclase and increase in cyclic adenosine 3', 5' monophosphate (cAMP). The TSH receptor (THSR) is mainly expressed in thyroid follicular cells and regulates their growth and function. […]
NCGC Assay Protocol Summary: High Throughput Screening. […] 23 nl/well compound or control was then added to the assay plates, which were incubated for additional 30 min before reading a Envision fluorescence plate reader (Perkin Elmer) in bottom-read mode for fluorescence intensity (emission at 590 nm). Keywords: Thyroid-stimulating hormone TSH, TSHR, TSHR agonist, quantitative high throughput screening, qHTS, HTS, probe identification, CNG, cAMP, cyclic nucleotide gated ion channel PubChem
Potency means the concentration at half of the fitted maximal effect.

## Cc1nn(-c2ccccc2)c2c1P(=O)(N1CCOCC1)N(C)C(c1ccccc1)=N2 (stereo unspecified)
  Potency: active: 10 µM
